For the data set the following is noted: solution exposed to UV-Vis irradiation.

As to `O=C(O)CCC(=O)C(=O)O` [alpha-KG, alpha-ketoglutaric acid], the “free-radical yield (conversion rate)” value is 10-50%.

The values are drawn from patent US20240366801A1, “HYPERPO[…] AND PRODUCT” (CAMBRIDGE ENTERPRISE LIMITED, priority 2021, published 2024).
